In patent US20160355588A1 (published 2016):

Experiments:
v1653 = assay: whole cell binding
v6475 = assay: whole cell binding

B1: Jurkat T cells (receptor)
chain: DGNEEMGGITQTPYKVSISGTTVILTCPQYPGSEILWQHNDKNIGGDEDDKNIGSDEDHLSLKEFSELEQSGYYVCYPRGSKPEDANFYLYLRARVCENCMEMDVMSVATIVIVDICITGGLLLLVYYWSKNRKAKAKPVTRGAGAGGRQRGQNKERPPPVPNPDYEPIRKGQRDLYSGLNQRRI
Q: For B1, which Kd (v1653) is on record?
A: The Kd was about 30 nM.

Q: And the Kd (v6475)?
A: The Kd was about 30 nM.
